# Reference: PubChem BioAssay AID449762 (Southern Research Specialized Biocontainment Screening …, 2010)
# This is one part of the list. Some results for these compounds are left out of this collection, so the calls shown say nothing about other tests. Inconclusive results are not listed. The source made the active and inactive calls. Rule as the data show it: inconclusive = inhibition above about 70% without an active follow-up result; inactive = below that.
# Experiment: M. tuberculosis growth inhibition, HTS (AID 449762);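 also: bacterial growth assessed after seven days of incubation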
# Conditions: M. tuberculosis H37Rv growth inhibition, 7H9 media; at 25 µM; stronger effect = higher value
row,SMILES,inhibition
1,CN(C)c1cccc(C(=O)NCC2(N(C)C)CCCCC2)c1,inactive: -1.89%
2,CC(C)Oc1ccc(C(=O)NCC2(N(C)C)CCCCC2)cc1,inactive: 0.95%
3,COc1ccc(Br)c(C(=O)NCC2(N3CCCCC3)CCCCC2)c1,inactive: -9.03%
4,O=C(OC1CN2CCC1CC2)C(CO)(c1ccccc1)c1ccccc1 (centres undefined),inactive: -2.92%
5,O=C(NCC1(N2CCCCC2)CCCCC1)c1cccc(Cl)c1,inactive: -1.49%
6,COc1cccc(C(=O)NCC2(N3CCCCC3)CCCCC2)c1,inactive: 3.02%
7,COc1ccc(Cl)cc1C(=O)NCC1(N(C)C)CCCCC1,inactive: 8.28%
8,COc1cc(C(=O)NCC2(N(C)C)CCCCC2)c([N+](=O)[O-])cc1OC,inactive: 1.68%
9,CN(C)C1(CNC(=O)c2ccc(Br)cc2)CCCCC1,inactive: 3.09%
10,Cc1cc(C(=O)NCC2(N3CCCCC3)CCCCC2)ccc1[N+](=O)[O-],inactive: -4.63%
11,CCN1CCCC(OC(=O)C2(O)c3ccccc3C=Cc3ccccc32)C1 (centres undefined),inactive: -2%
12,O=C(NCC1(N2CCCCC2)CCCCC1)c1cccc(Br)c1,inactive: 10.6%
13,COc1ccc(C(=O)NCC2(N(C)C)CCCCC2)cc1,inactive: -0.3%
14,C=CCN1CCN(CCOC(=O)C(O)(c2ccccc2)c2ccccc2)CC1,inactive: 0.52%
15,O=C(NCC1(N2CCCCC2)CCCCC1)c1cc(F)c(F)cc1Cl,inactive: -2.32%
16,Cc1ccccc1C(=O)NCC1(N2CCCCC2)CCCCC1,inactive: -3.07%
17,CN(C)C1CCCC1OC(=O)C(O)(c1ccccc1)c1ccccc1 (centres undefined),inactive: 3.08%
18,CN(C)c1ccc(C(=O)NCC2(N(C)C)CCCCC2)cc1,inactive: 3.95%
19,Cc1ccc(C(=O)NCC2(N3CCCCC3)CCCCC2)cc1,inactive: 7.79%
20,CC(C)N1C(=O)CC2(CCN(CCOC(=O)C(O)(c3ccccc3)c3ccccc3)CC2)C1=O,inactive: -5.79%
21,CCN(CC)CC(C)C(C)OC(=O)C(O)(c1ccccc1)c1ccccc1 (centres undefined),inactive: 0.61%
22,COc1cc(SC)ccc1C(=O)NCC1(N(C)C)CCCCC1,inactive: 5.01%
23,CN1[C@@H]2CC[C@H]1CC(OC(=O)C(O)(c1ccccc1)c1ccccc1)C2 (some centres undefined),inactive: 6.84%
24,O=C(NCC1(N2CCCCC2)CCCCC1)c1cc([N+](=O)[O-])ccc1Cl,inactive: -5.92%
